Protein sequences, listed by entry. Tags and fused reporters are not part of them. Residues count along the entry.
UniProt Q63380, 1-617: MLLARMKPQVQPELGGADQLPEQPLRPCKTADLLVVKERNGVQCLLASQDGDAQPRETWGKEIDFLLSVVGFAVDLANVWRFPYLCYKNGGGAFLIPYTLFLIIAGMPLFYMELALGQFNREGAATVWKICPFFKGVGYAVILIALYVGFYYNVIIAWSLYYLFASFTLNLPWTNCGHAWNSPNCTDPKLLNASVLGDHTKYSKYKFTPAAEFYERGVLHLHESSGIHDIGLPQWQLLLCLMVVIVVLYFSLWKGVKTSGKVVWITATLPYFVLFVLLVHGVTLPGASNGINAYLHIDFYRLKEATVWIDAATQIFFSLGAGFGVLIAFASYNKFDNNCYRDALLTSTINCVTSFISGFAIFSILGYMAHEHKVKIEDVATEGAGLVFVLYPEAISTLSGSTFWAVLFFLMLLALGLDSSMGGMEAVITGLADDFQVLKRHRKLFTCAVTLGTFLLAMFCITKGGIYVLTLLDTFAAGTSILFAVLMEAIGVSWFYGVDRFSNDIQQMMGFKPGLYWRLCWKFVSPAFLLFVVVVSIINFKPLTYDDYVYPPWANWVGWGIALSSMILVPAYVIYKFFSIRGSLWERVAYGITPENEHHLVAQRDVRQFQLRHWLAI
UniProt P23977, whole entry: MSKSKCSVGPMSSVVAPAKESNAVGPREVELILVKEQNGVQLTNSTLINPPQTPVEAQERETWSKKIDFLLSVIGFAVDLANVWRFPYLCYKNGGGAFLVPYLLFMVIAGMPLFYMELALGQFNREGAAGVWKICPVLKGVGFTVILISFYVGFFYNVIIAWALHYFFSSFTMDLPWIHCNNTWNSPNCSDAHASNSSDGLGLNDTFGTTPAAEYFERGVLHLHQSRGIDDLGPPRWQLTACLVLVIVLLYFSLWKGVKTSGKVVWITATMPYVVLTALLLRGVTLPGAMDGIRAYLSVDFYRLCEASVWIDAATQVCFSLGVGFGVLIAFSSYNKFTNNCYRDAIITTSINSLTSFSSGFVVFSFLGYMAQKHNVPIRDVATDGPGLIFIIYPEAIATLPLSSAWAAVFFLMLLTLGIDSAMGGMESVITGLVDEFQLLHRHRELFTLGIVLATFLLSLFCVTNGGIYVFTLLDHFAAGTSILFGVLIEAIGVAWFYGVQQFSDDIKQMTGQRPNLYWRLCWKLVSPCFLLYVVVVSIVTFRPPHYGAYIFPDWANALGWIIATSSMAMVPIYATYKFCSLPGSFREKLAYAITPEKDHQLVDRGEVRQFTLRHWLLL

In patent US8440724B2, “Inhibiting neurotransmitter reuptake” (Mayo Foundation for Medical Education and Research, priority 2008, dated 2013):

How the values were obtained:
hSERT, hNET, hDAT = test: Human transporter binding: rank order and range of potency over the three transporters; settings: from KD values
[1] = target: rat norepinephrine transport, synaptosomal preparations (Rattus norvegicus, UniProt Q63380); settings: read-out: Inhibitor Constant (Ki), NE transport; cited from earlier work
[2] = target: rat dopamine transporter, synaptosomal preparations (Rattus norvegicus, UniProt P23977); settings: read-out: Inhibitor Constant (Ki), DA transport; cited from earlier work

| SMILES | Potency (rank-order of potency of binding; S = hSERT, N = hNET, D = hDAT) (hSERT, hNET, hDAT) | Ki [1] [nM] | Ki [2] [nM] |
| --- | --- | --- | --- |
| CN[C@H]1CC[C@@H](c2ccc(Cl)c(Cl)c2)c2ccccc21 [Sertraline, reference compound] | S > D > N | – | – |
| Fc1ccc([C@@H]2CCNC[C@H]2COc2ccc3c(c2)OCO3)cc1 [Paroxetine, reference compound] | S > N > D | – | – |
| CN1Cc2c(N)cccc2C(c2ccccc2)C1 (stereo not drawn) [Nomifensine, reference compound] | – | 5 ± 0.4 | – |
| CN(C)CCCN1c2ccccc2CCc2ccccc21 [Imipramine, reference compound] | – | 14 ± 1 | – |
| COc1ccc(C(CN(C)C)C2(O)CCCCC2)cc1 (stereo not drawn) [Venlafaxine] | – | 210 ± 20 | 5300 ± 600 |
